Source: US11208385B2, “N-substituted imidazole carboxylate compound, preparation method and use” (priority 2017, dated 2021)

Columns and labels:
[1] = In vitro degradation experiment in rat liver homogenate (HPLC); type: in vitro ADME; details: rat liver homogenate at 5, 10, and 20 min
Procedure: In Vitro Degradation Experiment of Compounds.
Chromatographic condition: mobile phase is methanol: H2O=65:35, and the water phase contains 0.06% ammonium acetate; the flow rate is 1 mL/min; the column temperature is 25° C.
Apparatus: Agilent 1100 Series. Chromatographic column: Aglent Eclipse Plus C18 column, 5 μm 4.6*[…].
The linear range is 1-50 μg/mL.
After fasting for 24 h, male SD rats were treated to collect liver, and the water on the surface of liver was removed using the filter paper, then liver was weighed. […] Then, the homogenate was centrifugated at 10000 g for 20 min at the temperature of 4° C. The supernatant solution was collected, and 14 samples (2 mL) of liver homogenate were taken out and warmed to 37° C. in water bath. Each compound (content 10 mg/mL, 10 μl) was added, respectively, to make a concentration of 50 μg/mL in liver homogenate.
[…] After centrifugation, the supernatant solution was taken out and injected. The concentration of each compound at each time point was detected, that was divided by the initial concentration of each compound, to obtain the degradation ratio of each compound.

[2] = in vivo; cited from earlier work

| SMILES | Residual rate compared with etomidate [1] | Potency relative to etomidate [2] |
| --- | --- | --- |
| COC(=O)CCOC(=O)c1cncn1[C@H](C)c1ccccc1 [MOC-ET, reference compound] | lower than that of control drug etomidate | ⅕ |
| COC(=O)C1(OC(=O)c2cncn2[C@H](C)c2ccccc2)CC1 [CPMM, reference compound] | lower than that of control drug etomidate | – |
